# Results published in ChEMBL document CHEMBL4732047, “New imidazopyridines with phosphodiesterase 4 and 7 inhibitory activity and their efficacy in animal models of inflammatory and autoimmune diseases” (Eur J Med Chem, 2021).
# Protein sequences, listed by entry. Tags and fused reporters are not part of them. Lines headed by an entry give the natural chain unless they say otherwise; changes in a name come on top.
# UniProt Q9Y233: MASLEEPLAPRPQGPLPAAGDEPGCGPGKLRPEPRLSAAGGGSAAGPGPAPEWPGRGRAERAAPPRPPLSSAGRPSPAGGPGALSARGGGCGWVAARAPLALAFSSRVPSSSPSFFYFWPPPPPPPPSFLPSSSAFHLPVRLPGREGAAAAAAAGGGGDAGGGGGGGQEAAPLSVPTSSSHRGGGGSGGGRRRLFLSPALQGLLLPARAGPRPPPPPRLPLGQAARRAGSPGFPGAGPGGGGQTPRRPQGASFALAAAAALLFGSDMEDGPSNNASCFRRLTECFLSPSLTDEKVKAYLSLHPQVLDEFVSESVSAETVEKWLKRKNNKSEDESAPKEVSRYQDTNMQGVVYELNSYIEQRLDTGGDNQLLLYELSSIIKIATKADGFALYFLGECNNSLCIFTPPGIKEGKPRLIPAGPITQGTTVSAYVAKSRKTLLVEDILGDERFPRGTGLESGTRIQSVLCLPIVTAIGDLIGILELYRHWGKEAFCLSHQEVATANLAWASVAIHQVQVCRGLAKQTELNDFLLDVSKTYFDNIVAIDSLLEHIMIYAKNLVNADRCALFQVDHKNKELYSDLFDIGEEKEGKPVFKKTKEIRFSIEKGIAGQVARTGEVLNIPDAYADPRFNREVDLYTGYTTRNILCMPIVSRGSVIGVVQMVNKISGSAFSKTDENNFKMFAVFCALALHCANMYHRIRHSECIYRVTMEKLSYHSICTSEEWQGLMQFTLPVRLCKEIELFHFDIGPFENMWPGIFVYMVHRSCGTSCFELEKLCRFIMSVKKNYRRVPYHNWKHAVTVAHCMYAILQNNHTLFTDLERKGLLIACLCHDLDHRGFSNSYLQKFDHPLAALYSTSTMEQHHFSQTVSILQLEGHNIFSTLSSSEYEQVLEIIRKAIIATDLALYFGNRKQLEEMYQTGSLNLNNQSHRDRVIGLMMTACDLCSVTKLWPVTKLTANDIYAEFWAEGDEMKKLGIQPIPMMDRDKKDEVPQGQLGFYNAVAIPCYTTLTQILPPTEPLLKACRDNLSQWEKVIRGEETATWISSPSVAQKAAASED
# Molecular target: cAMP and cAMP-inhibited cGMP 3',5'-cyclic phosphodiesterase 10A (Homo sapiens, UniProt Q9Y233)
# Assay: Inhibition of human recombinant PDE10A using cAMP as substrate incubated for 20 mins measured by Kinase Glo reagent based microplate reader assay
smiles,measurement,value
COc1ccc(Cc2nccc3cc(OC)c(OC)cc23)cc1OC [PAPAVERINE],IC50,38 nM
